Values of other authors in PMC7618119.

Tested on: P-glycoprotein
Settings: ref Dagenais et al., 2004; Kalvass et al., 2007; F. Martins et al., 2023; Yu et al., 2018; cited from earlier work

CN1CC[C@]23c4c5ccc(O)c4O[C@H]2[C@@H](O)C=C[C@H]3[C@H]1C5
P-glycoprotein substrate: substrates for P-glycoprotein-mediated extrusion from the brain
